Test: Absorption, distribution, metabolism and elimination crossover study, capsule vs 14C-celecoxib suspension (Example 13)
Conditions: healthy male subjects, 300 mg 14C-celecoxib

radioactive dose in either urine or feces: about 2.56%
SMILES: Cc1ccc(-c2cc(C(F)(F)F)nn2-c2ccc(S(N)(=O)=O)cc2)cc1 [celecoxib, 4-[5-(4-methylphenyl)-3-(trifluoromethyl)-1H-pyrazol-1-yl]benzenesulfonamide]
